The list shows a part of the results, in another mix than the full data. The source made the active and inactive calls.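 The calls were made as follows: active = at least 50% inhibition at 5 µM, scaled per plate between neutral and stimulator controls; inactive = the rest.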
assay: inhibitors of PAF-induced NF-kB signaling, primary screen, cell-based, GFP fluorescence, uHTS (AID 588850); details: KKLEB NF-kB-GFP reporter, GFP fluorescence overnight, at 5 µM, stronger effect = higher value;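 also: PAF is a Pseudomonas aeruginosa culture filtrate used as stimulus; plate controls were PAF-stimulated DMSO wells for no effect and unstimulated DMSO wells for full effect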

| SMILES | inhibition |
| --- | --- |
| CC(C)(C)OC(=O)N1CCC(N(C(=O)c2ccccc2)c2ccc(Cl)cc2)CC1 | inactive: 8.4% |
| N#Cc1ccc(C(=O)NCC2(N3CCCCC3)CCCCC2)cc1 | inactive: 3.5% |
| CC(C)(C)n1nnnc1C(c1cccc2ccccc12)N1CCC(n2c(=O)[nH]c3ccccc32)CC1 (configuration not stated) | inactive: -18.4% |
| O=c1[nH]c2ccccc2n1C1CCN(C(c2ccccc2)c2nnnn2C2CCCC2)CC1 (configuration not stated) | inactive: 3.5% |
| CCCN1CCC(Nc2cc(OC)cc(OC)c2)CC1 | inactive: -6% |
| Cc1cc(N(CCCl)CCCl)ccc1C=O | inactive: -11.5% |
| c1ccc(CN2CCC(Nc3ccccc3)CC2)cc1 | inactive: -11.2% |
| CN(C)C1(CNC(=O)c2cccc(C#N)c2)CCCCC1 | inactive: -8.4% |
| O=c1[nH]c2ccccc2n1C1CCN(C(c2ccnc3ccccc23)c2nnnn2C2CCCC2)CC1 (configuration not stated) | inactive: -2.1% |
| COc1ccc(C(=O)NCC2(N3CCOCC3)CCCCC2)cc1OC | inactive: -17.3% |
| O=c1[nH]c2ccccc2n1C1CCN(C(c2cccs2)c2nnnn2C2CCCCC2)CC1 (configuration not stated) | inactive: 24.4% |
| O=C(NCC1(N2CCOCC2)CCCCC1)c1cc(Br)ccc1Cl | inactive: -37% |
| COc1cc(C(=O)NCC2(N3CCOCC3)CCCCC2)cc(OC)c1C | inactive: 23.8% |
| CCCCn1nnnc1C(c1ccccc1)N1CCC(n2c(=O)[nH]c3ccccc32)CC1 (configuration not stated) | inactive: -0.7% |
| CCCCn1nnnc1C(c1cccc(OC)c1OC)N1CCC(n2c(=O)[nH]c3ccccc32)CC1 (configuration not stated) | inactive: -11.4% |
| O=c1[nH]c2ccccc2n1C1CCN(C(c2cccs2)c2nnnn2C2CCCC2)CC1 (configuration not stated) | inactive: 10% |
| O=C(OC1CN2CCC1CC2)C1c2ccccc2C=Cc2ccccc21 (configuration not stated) | inactive: 0.2% |
| N/C(=N\O)c1c(N)no[n+]1[O-] | inactive: 8.6% |
| COc1cccc(C(c2nnnn2C(C)(C)C)N2CCC(n3c(=O)[nH]c4ccccc43)CC2)c1OC (configuration not stated) | inactive: -18.5% |
| CCOC(=O)N1CCC(Nc2ccc(C)cc2)CC1 | inactive: 4.8% |
| CCCOc1ccc(C(=O)NCC2(N(C)C)CCCCC2)cc1 | inactive: -8.1% |

| SMILES | inhibition |
| --- | --- |
| O=c1[nH]c2ccccc2n1C1CCN(C(c2cc3ccccc3o2)c2nnnn2C2CCCC2)CC1 (configuration not stated) | inactive: 0% |
| O=C(O)C1(Nc2ccccc2)CCN(Cc2ccccc2)CC1 | inactive: -8.7% |
| CC(C)(C)OC(=O)N1CCC(Nc2ccccc2)CC1 | inactive: 2.2% |
| CN1CCC(Nc2ccc(F)c(Cl)c2)CC1 | inactive: 13.3% |
| CCOc1ncccc1C(=O)NCC1(N2CCOCC2)CCCCC1 | inactive: 12.1% |
| CN1CCC(Nc2ccc(Cl)cc2)CC1 | inactive: 0.3% |
| CCC(CO)(C(=O)OC1CN2CCC1CC2)c1ccccc1 (configuration not stated) | inactive: 2.2% |
| COc1cccc(C(=O)N(c2cc(C)cc(C)c2)C2CCN(C(=O)OC(C)(C)C)CC2)c1 | inactive: 13.1% |
| COc1cccc(C(c2nnnn2C2CCCC2)N2CCC(n3c(=O)[nH]c4ccccc43)CC2)c1OC (configuration not stated) | inactive: -20.5% |
| COc1cc(OC)cc(C(=O)NCC2(N3CCOCC3)CCCCC2)c1 | inactive: -1.8% |
| Cc1ccc(NC2(C#N)CCN(Cc3ccccc3)CC2)cc1 | inactive: 9.3% |
| Fc1ccccc1NC1CCN(Cc2ccccc2)CC1 | inactive: 0.8% |
| Cc1ccc(C(=O)NCC2(N3CCCCC3)CCCCC2)o1 | inactive: 32.9% |
| O=c1[nH]c2ccccc2n1C1CCN(C(c2ccnc3ccccc23)c2nnnn2C2CCCCC2)CC1 (configuration not stated) | inactive: 19.6% |
| COc1cc(OC)cc(C(=O)NCC2(N3CCCCC3)CCCCC2)c1 | inactive: -5.1% |
| CCC(c1nnnn1C1CCCCC1)N1CCC(n2c(=O)[nH]c3ccccc32)CC1 (configuration not stated) | inactive: 1.3% |
| CC(=O)N(c1ccccc1)C1CCNCC1 | inactive: 5.5% |
| COc1cccc(C(c2nnnn2C2CCCCC2)N2CCC(n3c(=O)[nH]c4ccccc43)CC2)c1OC (configuration not stated) | inactive: 8.3% |
| Cn1c(=O)[nH]cc(N(CCCl)CCCl)c1=O | inactive: -17.2% |
| CN(C)c1ccc(C(=O)NCC2(N3CCCCC3)CCCCC2)cc1 | inactive: -0.1% |
| O=C(NCC1(N2CCCCC2)CCCCC1)c1ccco1 | inactive: -10.1% |

| SMILES | inhibition |
| --- | --- |
| CC(C)(C)n1nnnc1C(c1ccnc2ccccc12)N1CCC(n2c(=O)[nH]c3ccccc32)CC1 (configuration not stated) | inactive: -11.4% |
| COc1ccc(C(c2nnnn2C2CCCCC2)N2CCC(n3c(=O)[nH]c4ccccc43)CC2)cc1 (configuration not stated) | inactive: 8.6% |
| CCN1CCC(Nc2cccc(F)c2)CC1 | inactive: -26.3% |
| Cc1ccccc1NC1(C#N)CCN(Cc2ccccc2)CC1 | inactive: 4.2% |
| CCOC(=O)N1CCC(Nc2ccc(F)cc2)CC1 | inactive: -13.4% |
| COc1ccc(NC2CCN(CCc3ccccc3)CC2)c(OC)c1 | inactive: -3.6% |
| O=C(NCC1(N2CCCCC2)CCCCC1)c1ccc(F)cc1 | inactive: 8.6% |
| CCCCOc1ccc(C(=O)NCC2(N3CCOCC3)CCCCC2)cc1 | inactive: -8.4% |
| O=P1(N(CCCl)CCCl)SCCCS1 | inactive: -2.5% |
| CCCCn1nnnc1C(c1cc2ccccc2o1)N1CCC(n2c(=O)[nH]c3ccccc32)CC1 (configuration not stated) | inactive: 42.4% |
| CCOc1ccc(C)cc1CN(CCCl)CCCl | inactive: 1.2% |
| O=C1CCN(Cc2ccccc2)CC1 | inactive: 8.1% |
| CC(C)(C)n1nnnc1C(c1ccccc1)N1CCC(n2c(=O)[nH]c3ccccc32)CC1 (configuration not stated) | inactive: -17.9% |
| O=c1[nH]c2ccccc2n1C1CCN(C(c2cccc3ccccc23)c2nnnn2C2CCCC2)CC1 (configuration not stated) | inactive: 11.3% |
| COc1cc(C(=O)NCC2(N(C)C)CCCCC2)ccc1OC(F)F | inactive: 6.5% |
| CCOC(=O)N1CCC(Nc2cccc(C)c2)CC1 | inactive: 11.6% |
| O=c1[nH]c2ccccc2n1C1CCN(C(c2ccccc2)c2nnnn2C2CCCCC2)CC1 (configuration not stated) | inactive: -9.2% |
| Cc1cccc(NC2(C#N)CCN(Cc3ccccc3)CC2)c1 | inactive: -9.1% |
| CSc1ccccc1C(=O)NCC1(N2CCCCC2)CCCCC1 | inactive: 2.5% |
| CCCCn1nnnc1C(c1cccs1)N1CCC(n2c(=O)[nH]c3ccccc32)CC1 (configuration not stated) | active: 77.2% |

Reference: PubChem BioAssay AID588850 (Sanford-Burnham Center for Chemical Genomics, 2011)
